{"source": "patent US20100260830A1", "about": "“Liposomal Formulations of Tocopheryl Amides” (priority 2009, published 2010)", "system": "mouse melanoma B16F10 cells", "assay": "Cytotoxic effect on melanoma cells in vitro", "method": "IC50 values were calculated from MTT activity (Bank, U et al, 1991, Measurement of cellular activity by means of the MTT-test. Allerg Immunol 37:119-123).", "note": "Counter-ions that a name gives are not always drawn."}
{"smiles": "Cc1c(C)c2c(c(C)c1OC(=O)/C=C\\C(=O)O)CC[C@@](C)(CCC[C@H](C)CCC[C@H](C)CCCC(C)C)O2", "note": "[αTOM, α-tocopheryl maleate]", "values": [{"measurement": "cytotoxic potential (order)", "value": "αTAM>αTOM>αTOS>>αTOH"}]}
